Laboratory results from patent publication US8859615B2, “Compounds, compositions and methods for reducing toxicity and treating or preventing diseases” (priority 2008, dated 2014).

System: human mammary carcinoma MX-1 xenografts
Settings: FIG. 5; Cyclophosphamide 120 mg/kg oral Q2D×8, ip Q2D×4, with or without Compound D 10 mg/kg iv Q4D×3, Q6D×2; n=8

## O=P1(N(CCCl)CCCl)NCCCO1 (stereo not shown) [Cyclophosphamide]
  complete remission (CR): 8/8
